# Results from patent publication US20250282736A1 (published 2025).
# Amino acid sequences for entries named in this document (tags omitted). A change or cut given only in a name is not applied to a line headed by its entry.
# UniProt O75469: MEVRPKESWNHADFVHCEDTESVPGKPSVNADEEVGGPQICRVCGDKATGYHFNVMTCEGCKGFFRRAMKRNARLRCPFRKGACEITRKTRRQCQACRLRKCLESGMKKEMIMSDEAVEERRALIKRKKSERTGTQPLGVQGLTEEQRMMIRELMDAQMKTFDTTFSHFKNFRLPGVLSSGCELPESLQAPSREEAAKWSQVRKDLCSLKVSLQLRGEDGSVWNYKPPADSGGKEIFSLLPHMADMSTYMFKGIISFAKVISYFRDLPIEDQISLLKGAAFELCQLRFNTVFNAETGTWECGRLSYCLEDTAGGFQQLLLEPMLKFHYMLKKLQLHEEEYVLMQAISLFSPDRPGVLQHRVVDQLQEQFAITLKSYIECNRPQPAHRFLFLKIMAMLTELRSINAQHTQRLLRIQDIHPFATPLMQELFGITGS
# Biological target: hPXR (Homo sapiens (Human), UniProt O75469)
# Test: hPXR binding assay
# Details: read-out: Binding (% inhibition at 10 μM)
smiles,measurement,value
CCCCOc1ccc(C(C)(C)C)cc1NC(=O)c1nnn(-c2cccc(OC)c2)c1C [H7],inhibition at 10 µM,14%
